# DSG3 Ab inh = human desmoglein-3 autoantibody binding inhibition | DSG3-coupled beads, scFv-anti-DSG3-GFP binding, flow cytometry; active compounds read low | binding (percent of control), % at 10 µM | 310,000 compounds, 0.48% hits | AID 588358;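 active means binding more than 3 SD below its plate's average and above zero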;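 further: hits lower antibody fragment binding to DSG3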
# TbMetRS inhib = Trypanosoma brucei MetRS inhibition. purified T. brucei MetRS, ATP depletion, Kinase-Glo luminescence. inhibition, % at 11.9 µM. 360,000 compounds, 0.4% hits;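 active means inhibition above a per-plate cutoff of the control wells' mean inhibition plus 3 SD, cut at about 5.5% in these data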;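 further: 0% = DMSO wells median and 100% = median of wells with control inhibitor compound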
#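 Assay system: T. brucei methionyl-tRNA synthetase, purified | Medium: HEPES buffer with MgCl2, KCl, DTT, spermine, BSA, pyrophosphatase | Compound: 11.9 µM single point | Incubation: 15 min enzyme-compound preincubation, 2 h reaction, 10 min detection, 25 °C | Measured by: Kinase-Glo luciferase luminescence reporting remaining unconsumed ATP | Measure: % inhibition normalized to control-well medians | Replication: Singlicate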
# Arrestin-AP2 inh = human beta-arrestin and AP2 interaction inhibition; FITC-arrestin peptide / GST-AP2 beads, flow cytometry; AP2 beta2 appendage carries R879A mutation; inhibition, % at 10 µM; 340,000 compounds, 0.31% hits;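 active means inhibition above a set limit, near 3 SD of compounds lacking own fluorescence, cut at about 54% in these data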;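 further: plate controls were DMSO wells for no effect and 5 µM unlabelled arrestin peptide for full effect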
#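 system = GST-tagged AP2 beta2-adaptin appendage (R879A) on 4 µm glutathione beads | reagent = FITC-labelled arrestin peptide probe, 50 nM final | schedule = compound with beads 12 min RT, then probe 1 h RT | signal = HyperCyt-sampled flow cytometry, FL1 channel, ex 488/em 535 nm | read-out = percent response from loss of bead-bound FITC fluorescence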
# Yeast UUG start = yeast start codon fidelity modulation; AID 602363; activity score, % at 18.7 µM; S. cerevisiae UUG-firefly luciferase reporter, luminescence/redox ratio; 0.13% of 350,000 active;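 active means replicate mean at a twofold rise or more, about +100% in these data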;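 further: firefly luciferase made from a UUG start codon reports start codon fidelity; reporter light over untreated wells divided by growth signal over untreated wells; some hits fall short of that in this replicate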
# Rce1 inh = inhibitors of yeast Ras-converting enzyme | Q03530 | yeast membranes, quenched prenylated peptide cleavage fluorescence | calls only | 290,000 compounds, 0.27% hits;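 active means fall in fluorescence gain of 50% or more versus controls, with final raw signal at or below 3038400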;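 further: plate controls were neutral control wells for no effect and wells lacking membranes for full effect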
# Arr AP2 CP1 = human beta-arrestin and AP2 interaction inhibition, cherry pick; shares compounds with Arrestin-AP2 inh; GST-AP2 beads, FITC arrestin peptide binding, flow cytometry; GST-fused beta2-adaptin appendage, R879A mutant; inhibition, % at 10 µM; 1,300 compounds, 2% hits;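 active means inhibition above a set limit, roughly 3 SD of non-fluorescent compound noise, cut at about 38% in these data; inactive means inhibition at or below that limit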;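 further: loss of bead fluorescence from 50 nM FITC arrestin peptide bound to appendage; 0% = negative control wells and 100% = excess unlabelled arrestin peptide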
# GST-FITC bead = disrupts GST binding to glutathione beads, arrestin-AP2 artifact; shares compounds with Arrestin-AP2 inh; GST-fluorescein binding to GSH beads, fluorescence, counter-screen; inhibition, % at 10 µM; 1,300 compounds, 2% hits;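 active means inhibition above 50%, about 3 SD of the inhibition seen with non-fluorescent compounds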;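 further: fluorescein maleimide labelled GST captured on 4 micron glutathione beads; higher means more loss of bead fluorescence from quenching or blocked binding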
# An asterisk follows results filed as active; i = inactive; . = no result given. Compounds with a hit are over-represented: about 1.2% of the library has one in this group of screens.
# Sequence of screens: DSG3 Ab inh	TbMetRS inhib	Arrestin-AP2 inh	Yeast UUG start	Rce1 inh	Arr AP2 CP1	GST-FITC bead
> CCOc1ccccc1CN1CCN(Cc2cn(C)nc2-c2ccccc2)CC1CCO (stereo not given)
 : 109.2	-0.9	54.0*	-6.6	i	7.2	5.3
> Cn1cc(CN2CCN(Cc3ccccc3)C(CCO)C2)c(-c2ccccc2)n1 (stereo not given)
 : 94.6	-0.8	-0.7	-21.5	i	.	.
> O=C(CN1C(=O)CS/C1=C\c1nc(-c2ccc(Cl)cc2)cs1)Nc1cccnc1Cl
 : 95.3	-0.3	60.8*	.	i	8.7	1.8
> Cc1ccc(-c2csc(/C=C3\SC(C)C(=O)N3CC(=O)Nc3ccccc3F)n2)cc1 (stereo not given)
 : 89.5	-0.2	7.9	-6.4	i	.	.
> CNC[C@@H]1Oc2ccc(NC(=O)CCC(F)(F)F)cc2CC(=O)N([C@H](C)CO)C[C@H]1C
 : .	.	.	9.6	.	.	.
> COCCNC(=O)c1cccc(S(=O)(=O)N2CC3(C)CC2CC(C)(C)C3)c1 (stereo not given)
 : 102.2	-0.3	62.6*	.	i	-2.2	1.1
> C/C(Cl)=C\Cn1c(O)c(N=NC(N)=S)c2ccccc21
 : 98.2	0.5	9.5	.	i	.	.
> CCOC(=O)n1c(O)c(N=NC(N)=S)c2cc(C)ccc21
 : 104.6	-0.7	54.2*	.	i	-9.9	1.9
> CCOC(=O)c1c(C)[nH]c(C(=O)CN2C(=O)C(=O)N(CC(C)C)C2=O)c1C
 : 103.0	-0.7	55.6*	.	i	0.3	-2.7
> COC(=O)c1ccccc1S(=O)(=O)N1CCC(C(=O)NCCC2=CCCCC2)CC1
 : 88.1	-0.5	63.4*	-1.4	.	-5.3	-1.1

# Other records:
# Sequence of screens: DSG3 Ab inh	TbMetRS inhib	Arrestin-AP2 inh	Yeast UUG start	Rce1 inh	Arr AP2 CP1	GST-FITC bead
> O=C(C[C@@H]1CC[C@@H](NC(=O)c2ccncc2)[C@H](CO)O1)NCCc1ccncc1
 : .	.	.	3.3	.	.	.
> O=C(COC(=O)c1ccc(F)cc1F)c1ccc[nH]1
 : 103.4	-0.3	71.8*	-12.1	.	-4.5	1.9
> COc1cc(C(=O)O)nc2ccccc12
 : 105.8	-0.3	56.4*	-5.8	i	-10.3	-2.2
> CN(C)CC(=O)N1CC[C@@H]2[C@H]1c1cc(Br)ccc1N(C)[C@H]2CO
 : .	.	.	-9.8	.	.	.
> COc1ccc(CNC(=O)CN(CC2CCCO2)C(=O)CNS(=O)(=O)c2ccc(C)cc2)cc1 (stereo not given)
 : 104.7	-0.5	77.4*	6.6	i	-3.7	0.7
> COc1ccc(CNC(=O)CN(CC2CCCO2)C(=O)CNS(=O)(=O)c2ccccc2)cc1 (stereo not given)
 : 97.4	-1.4	-1.0	-11.8	i	.	.
> COc1ccc(Cl)cc1NC(=O)COC(=O)C1CCCCC1
 : .	-0.3	56.7*	-5.2	.	6.3	-7.3
> COc1ccc(Cl)cc1NC(=O)COC(=O)C1CC1
 : 110.4	-0.3	-3.2	-5.4	.	.	.
> COc1ccc(Cl)cc1NC(=O)COC(=O)C1CC(=O)N(Cc2ccccc2)C1 (stereo not given)
 : 98.8	-0.6	57.8*	-12.7	.	5.0	0.7
> CCCNc1nc(NCC)nc(OC)n1
 : 102.3	0.8	63.7*	-25.3	i	13.4	-6.3

# The list continues.
# Sequence of screens: DSG3 Ab inh	TbMetRS inhib	Arrestin-AP2 inh	Yeast UUG start	Rce1 inh	Arr AP2 CP1	GST-FITC bead
> CCNc1nc(OC)nc(SCC(N)=O)n1
 : 103.0	-1.3	-2.6	-6.0	i	.	.
> CCOC(=O)N1CCN(C(=O)c2ccc3c(=O)n(-c4ccccc4F)c(=S)[nH]c3c2)CC1
 : 124.9	-0.6	-2.9	-13.9	i	.	.
> CCc1ccc(C(CNC(=O)c2ccc3c(=O)n(-c4ccccc4F)c(=S)[nH]c3c2)N(C)C)cc1 (stereo not given)
 : 102.2	-1.1	58.2*	.	i	-14.6	0.5
> COc1ccc(OC)c(-c2nc(CN3CCN(C(=O)c4ccco4)CC3)c(C)o2)c1
 : 111.9	-0.5	-9.3	0.9	i	.	.
> COc1ccc(-c2nc(CN3CCN(C(=O)c4ccco4)CC3)c(C)o2)c(OC)c1C
 : 114.8	-0.6	54.2*	-5.0	i	-8.1	-2.4
> Cc1ccc(S(=O)(=O)NCc2ccccc2)cc1
 : 108.5	1.9	55.6*	1.1	i	-4.5	-4.8
> C[C@@H]1CN([C@@H](C)CO)C(=O)Cc2cc(NC(=O)Cn3cnnn3)ccc2O[C@H]1CN(C)S(=O)(=O)c1cccs1
 : .	.	.	11.2	.	.	.
> COc1cccc(-n2c(-c3ccco3)nc3nc4ccccc4nc32)c1
 : 114.6	-0.6	75.3*	.	i	64.8*	174.4*
> CCCNC(=O)N(C)C[C@H]1Oc2cc(C#CCN(C)C)ccc2S(=O)(=O)N([C@@H](C)CO)C[C@@H]1C
 : .	.	.	4.9	.	.	.
> COc1ccc(S(=O)(=O)N2CC[C@@H]3[C@H](CO)Nc4ccc(C#Cc5cccnc5)cc4[C@@H]32)cc1
 : .	.	.	-0.2	.	.	.

# 6 records drawn at random from those above, as already listed:
# Sequence of screens: DSG3 Ab inh	TbMetRS inhib	Arrestin-AP2 inh	Yeast UUG start	Rce1 inh	Arr AP2 CP1	GST-FITC bead
> O=C(COC(=O)c1ccc(F)cc1F)c1ccc[nH]1
 : 103.4	-0.3	71.8*	-12.1	.	-4.5	1.9
> Cc1ccc(S(=O)(=O)NCc2ccccc2)cc1
 : 108.5	1.9	55.6*	1.1	i	-4.5	-4.8
> O=C(C[C@@H]1CC[C@@H](NC(=O)c2ccncc2)[C@H](CO)O1)NCCc1ccncc1
 : .	.	.	3.3	.	.	.
> COc1ccc(-c2nc(CN3CCN(C(=O)c4ccco4)CC3)c(C)o2)c(OC)c1C
 : 114.8	-0.6	54.2*	-5.0	i	-8.1	-2.4
> CN(C)CC(=O)N1CC[C@@H]2[C@H]1c1cc(Br)ccc1N(C)[C@H]2CO
 : .	.	.	-9.8	.	.	.
> CCc1ccc(C(CNC(=O)c2ccc3c(=O)n(-c4ccccc4F)c(=S)[nH]c3c2)N(C)C)cc1 (stereo not given)
 : 102.2	-1.1	58.2*	.	i	-14.6	0.5

# (listing goes on)
# Sequence of screens: DSG3 Ab inh	TbMetRS inhib	Arrestin-AP2 inh	Yeast UUG start	Rce1 inh	Arr AP2 CP1	GST-FITC bead
> O=C(CCSc1ccc(Cl)cc1)N1CCN(S(=O)(=O)c2ccccc2)CC1
 : .	-0.2	-5.4	-6.0	.	.	.
> O=C(CCC(=O)N1CCN(S(=O)(=O)c2ccc(Cl)cc2)CC1)NCc1ccccc1
 : 103.2	-0.9	58.0*	11.5	i	10.1	-0.8
> COc1ccccc1Oc1coc2c(CN(C)C)c(O)ccc2c1=O
 : 97.7	-0.5	1.9	-11.7	i	.	.
> CCN(CC)Cc1c(O)ccc2c(=O)c(Oc3ccccc3OC)coc12
 : 96.1	-0.5	56.2*	.	i	6.9	-5.9
> Oc1cc2c(cc1C(c1ccc(Br)cc1)N1CCCC1)OCO2 (stereo not given)
 : 93.8	-0.1	60.5*	.	.	11.2	18.2
> Cc1cc(NC(=O)c2ccc(F)cc2F)n(-c2nc3ccccc3[nH]2)n1
 : 93.0	-0.8	11.7	-13.6	i	25.7	2.3
> Cc1cc(NC(=O)/C=C/c2ccccc2Cl)n(-c2nc3ccccc3[nH]2)n1
 : 97.5	0.3	100.6*	.	i	-3.9	-5.4
> Cc1cc(NC(=O)CC2CCCC2)n(-c2nc3ccccc3[nH]2)n1
 : 95.6	-0.4	7.0	-17.5	i	.	.
> O=S(=O)(c1ccc2ccccc2c1)N1CCN(Cc2cccc(OCCO)c2)CC1
 : .	.	.	6.1	.	.	.
> O=C(COC(=O)Cn1cnc2ccccc21)Nc1ccc2c(c1)C(=O)c1ccccc1C2=O
 : 92.9	-1.0	100.0*	.	i	23.6	33.4

# Additional records follow:
# Sequence of screens: DSG3 Ab inh	TbMetRS inhib	Arrestin-AP2 inh	Yeast UUG start	Rce1 inh	Arr AP2 CP1	GST-FITC bead
> CCCc1cc(=O)[nH]c(SCC(=O)c2c(C)[nH]c3ccccc23)n1
 : 95.0	-1.1	1.4	.	i	.	.
> CCCc1cc(=O)[nH]c(SCC(=O)c2c[nH]c3ccccc23)n1
 : 116.0	-0.5	54.4*	-18.7	i	4.0	3.6
> C[C@@H]1CN([C@H](C)CO)C(=O)c2cccc(NC(=O)NC3CCCCC3)c2O[C@@H]1CN(C)CC1CC1
 : .	.	.	8.2	.	.	.
> Cn1c(=O)c(C(=O)NNC(=O)c2ccccc2Cl)c(O)c2ccccc21
 : 95.2	0.7	23.7	0.8	i	.	.
> Cn1c(=O)c(C(=O)NNC(=O)c2ccccc2Br)c(O)c2ccccc21
 : 104.4	-0.1	55.5*	-18.7	i	-6.9	4.1
